ChEMBL document CHEMBL1240486, “Novel N-methylated 8-oxoisoguanines from Pacific sponges with diverse neuroactivities” (J Med Chem, 2010)

The chains behind the UniProt entries cited, without tags or fusion partners. Where a name states a change or a piece, a line headed by the entry shows the natural chain unless it says otherwise.
UniProt P14867: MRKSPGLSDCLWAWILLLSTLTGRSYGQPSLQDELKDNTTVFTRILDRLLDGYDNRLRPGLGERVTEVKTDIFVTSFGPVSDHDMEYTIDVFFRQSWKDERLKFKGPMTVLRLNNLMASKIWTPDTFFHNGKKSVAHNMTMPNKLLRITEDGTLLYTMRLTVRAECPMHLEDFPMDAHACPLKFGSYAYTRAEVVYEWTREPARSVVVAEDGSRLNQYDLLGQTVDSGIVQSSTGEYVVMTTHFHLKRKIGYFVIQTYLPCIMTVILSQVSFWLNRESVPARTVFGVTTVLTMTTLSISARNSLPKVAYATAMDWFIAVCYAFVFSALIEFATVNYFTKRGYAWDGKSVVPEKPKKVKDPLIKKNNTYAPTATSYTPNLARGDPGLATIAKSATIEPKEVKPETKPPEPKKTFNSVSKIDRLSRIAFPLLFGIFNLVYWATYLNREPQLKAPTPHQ
UniProt P18507: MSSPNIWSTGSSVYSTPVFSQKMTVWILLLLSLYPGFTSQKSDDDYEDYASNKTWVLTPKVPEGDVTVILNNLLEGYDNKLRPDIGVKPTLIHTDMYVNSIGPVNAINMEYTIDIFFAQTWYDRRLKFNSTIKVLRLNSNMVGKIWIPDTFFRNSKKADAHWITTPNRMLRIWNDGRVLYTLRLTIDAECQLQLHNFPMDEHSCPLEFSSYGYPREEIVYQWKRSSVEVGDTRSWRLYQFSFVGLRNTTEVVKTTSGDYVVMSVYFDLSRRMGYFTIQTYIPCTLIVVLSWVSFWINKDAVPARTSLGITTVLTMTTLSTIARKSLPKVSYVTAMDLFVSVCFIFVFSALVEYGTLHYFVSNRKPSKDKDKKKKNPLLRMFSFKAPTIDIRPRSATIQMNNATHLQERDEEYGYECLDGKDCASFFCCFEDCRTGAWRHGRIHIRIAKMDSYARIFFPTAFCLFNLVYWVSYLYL
UniProt P28472: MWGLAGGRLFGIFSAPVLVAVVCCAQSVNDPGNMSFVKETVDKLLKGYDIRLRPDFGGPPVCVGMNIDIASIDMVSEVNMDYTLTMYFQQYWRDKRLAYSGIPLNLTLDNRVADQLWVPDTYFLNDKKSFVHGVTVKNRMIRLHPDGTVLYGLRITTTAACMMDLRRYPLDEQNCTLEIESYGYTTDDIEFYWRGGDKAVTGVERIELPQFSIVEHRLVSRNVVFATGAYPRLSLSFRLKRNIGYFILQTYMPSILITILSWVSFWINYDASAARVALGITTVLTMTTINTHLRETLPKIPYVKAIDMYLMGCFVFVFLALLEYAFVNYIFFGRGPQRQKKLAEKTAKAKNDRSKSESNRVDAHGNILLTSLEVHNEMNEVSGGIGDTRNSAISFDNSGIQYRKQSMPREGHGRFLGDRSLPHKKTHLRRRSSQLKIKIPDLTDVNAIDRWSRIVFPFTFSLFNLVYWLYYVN

Legend:
[1] = biological target: GABA-A receptor; alpha-1/beta-3/gamma-2 (Homo sapiens) (UniProt P14867+P18507+P28472); assay: Antagonist activity at recombinant alpha-1-beta-3-gamma-2 L receptor expressed in HEK 293-T/17 cells assessed as GABA-induced current at 30 uM by whole-cell recording relative to control; assay type: functional, cell-based; design: scale not given: the % may be the effect or the level left; conditions: HEK293
[2] = test system: Glutamate receptor ionotropic kainate 2 (GluK2); assay: Antagonist activity at recombinant GluK2 receptor expressed in HEK 293-T/17 cells assessed as glutamate-induced current at 100 uM by whole-cell recording relative to control; design: scale not given: the % may be the effect or the level left; conditions: HEK293

Activity [1]: 99%
Activity [2]: 99%
SMILES: Cl.Cn1c(=O)[nH]c2c([nH]c(=O)n2C)c1=N
